Biological target: human GHSR1a (Homo sapiens, UniProt Q92847)
Test: Aequorin bioluminescence functional assay (intracellular calcium mobilization) in 293AEQ17/GHSR1a cells
Format: cell-based
Conditions: relative to ghrelin

By UniProt entry, the sequences of proteins in these tests, tags left out.
UniProt Q92847, whole entry: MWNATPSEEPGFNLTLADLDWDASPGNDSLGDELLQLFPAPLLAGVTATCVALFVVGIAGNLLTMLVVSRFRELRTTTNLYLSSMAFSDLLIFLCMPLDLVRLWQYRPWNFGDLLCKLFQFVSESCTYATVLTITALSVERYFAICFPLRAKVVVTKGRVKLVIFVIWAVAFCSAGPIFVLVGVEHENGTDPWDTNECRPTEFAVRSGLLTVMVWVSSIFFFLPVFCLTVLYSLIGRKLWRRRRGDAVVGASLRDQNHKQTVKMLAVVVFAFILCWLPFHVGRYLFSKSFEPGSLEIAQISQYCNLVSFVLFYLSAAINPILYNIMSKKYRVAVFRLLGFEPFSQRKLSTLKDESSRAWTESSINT

CCCCCCCC(=O)OC[C@H](NC(=O)[C@H](CO)NC(=O)CN)C(=O)N[C@@H](Cc1ccccc1)C(=O)N[C@@H](CC(C)C)C(=O)N[C@@H](CO)C(=O)N1CCC[C@H]1C(=O)N[C@@H](CCC(=O)O)C(=O)N[C@@H](Cc1c[nH]cn1)C(=O)N[C@@H](CCC(N)=O)C(N)=O [Compound 20, GSXFLSPEHQ-NH2]
activation at 10 µM: 89 ± 17%
